Target: Short transient receptor potential channel 6 (Mus musculus) (UniProt Q61143)
Assay: TRPC6 inhibitor potency, dose response, cell-based, mouse TRPC6, HEK293, membrane potential (AID 2696)
Details: TRPC6-expressing cells, fluorescence ratio calcium influx

The chains behind the UniProt entries cited, without tags or fusion partners. Where a name states a change or a piece, a line headed by the entry shows the natural chain unless it says otherwise.
UniProt Q61143: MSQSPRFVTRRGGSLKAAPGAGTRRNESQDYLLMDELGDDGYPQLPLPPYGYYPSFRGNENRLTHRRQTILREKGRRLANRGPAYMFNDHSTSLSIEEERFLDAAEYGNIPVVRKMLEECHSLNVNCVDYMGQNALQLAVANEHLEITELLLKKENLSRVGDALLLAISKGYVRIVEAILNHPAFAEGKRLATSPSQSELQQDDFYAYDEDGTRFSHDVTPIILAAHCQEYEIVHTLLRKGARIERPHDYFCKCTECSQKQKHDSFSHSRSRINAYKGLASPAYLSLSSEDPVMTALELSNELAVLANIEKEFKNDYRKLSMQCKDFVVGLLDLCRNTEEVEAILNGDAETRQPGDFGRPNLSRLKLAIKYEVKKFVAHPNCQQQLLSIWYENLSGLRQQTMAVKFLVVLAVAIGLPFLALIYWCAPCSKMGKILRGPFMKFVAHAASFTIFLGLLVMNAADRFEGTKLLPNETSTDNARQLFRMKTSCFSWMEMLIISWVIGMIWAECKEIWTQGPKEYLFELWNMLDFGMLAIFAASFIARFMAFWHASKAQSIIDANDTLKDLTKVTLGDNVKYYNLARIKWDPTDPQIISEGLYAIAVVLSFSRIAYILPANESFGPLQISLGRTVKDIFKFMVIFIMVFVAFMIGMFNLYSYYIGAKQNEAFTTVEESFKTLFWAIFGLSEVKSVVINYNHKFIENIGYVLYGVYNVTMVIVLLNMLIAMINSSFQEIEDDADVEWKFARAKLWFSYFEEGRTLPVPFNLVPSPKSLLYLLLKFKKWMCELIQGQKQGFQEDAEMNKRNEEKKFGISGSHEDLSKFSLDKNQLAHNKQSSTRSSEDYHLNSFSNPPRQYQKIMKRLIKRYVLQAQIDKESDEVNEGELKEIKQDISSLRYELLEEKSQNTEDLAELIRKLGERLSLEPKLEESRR

Row | Compound | IC50 [µM]
1 | O=[N+]([O-])c1ccc(O)c(/C=N/Nc2ccc([N+](=O)[O-])cc2[N+](=O)[O-])c1 | 70.8
2 | CN1CCCC(OC(=O)C(c2ccccc2)c2ccccc2)C1 (configuration not stated) | 39.8
